Target: T1, Recombinant human Syk (GST-Syk kinase fusion protein) (Homo sapiens, UniProt P43405)
T1 construct: made in house
Assay: Syk Kinase Test (Kinase Glo Luminescence Kinase test)
Format: biochemical
Details: 1 μM test substance; negative control (no kinase) = 100% inhibition, positive control (no test substance) = 0% inhibition
Protocol: The catalytic activity of the GST-Syk kinase fusion protein was determined using the Kinase Glo® Luminescence Kinase test of Messrs Promega. In this homogeneous test the amount of ATP remaining after the kinase reaction has been carried out is quantified by a luciferin-luciferase reaction using luminescence. The luminescence signal obtained correlates with the amount of ATP still present and thus correlates inversely with the activity of the protein kinase.
The test substances were dissolved in 100% DMSO at a concentration of 10 mM and diluted in DMSO to a concentration of 1 mM. […] GST-Syk was diluted to 6.0 nM in the test buffer and 10 μl of this dilution were used in the kinase test (final concentration of Syk=4 nM in a total volume of 15 μl).
Positive controls are the reaction mixtures that contain no test substance; negative controls are reaction mixtures that contain no kinase. […]
The output file of the “MicroBeta TRILUX” is a text file that contains the well number and measurements obtained. […] Then from this the % inherent value for the measurement of each substance concentration was calculated using an “MS-Excel-VB macro”. […] The IC50 values were calculated from the % inhibition values using “GraphPadPrism” software (Version 5) (GraphPad Software Inc.).

Compound | % INHB SYK at 1 μM
O=C1C[C@@H](COc2nc(-c3ccc(N4CCOCC4)cc3)cc3ncccc23)CN1 [Example 84, (R)-4-[7-(4-morpholin-4-yl-phenyl)-[1,6]naphthyridin-5-yloxymethyl]-pyrrolidin-2-one] | 90.1%
O=C1CC(COc2nc(-c3ccc(N4CCOCC4)cc3)cc3ncccc23)CN1 (centres unmarked) [Example 65, 4-[7-(4-morpholin-4-yl-phenyl)-[1,6]naphthyridin-5-yloxymethyl]-pyrrolidin-2-one] | 91.5%
